# Earlier results as cited in patent publication US9125835B2, “Synergistic combinations to reduce particle dose for targeted treatment of cancer and its metastases” (priority 2010, dated 2015).
# Details: in vivo, iv; cited from earlier work
substance,measurement,value
"MAA: human serum albumin macroaggregates, approved pulmonary perfusion diagnostic agents",entrapped after a single injection,> 90%
